Reference: patent US8945527B2, “Degradable compounds and methods of use thereof, particularly with particle replication in non-wetting templates” (The University of North Carolina at Chapel Hill, priority 2008, dated 2015)

Test: Release of entrapped rhodamine-B from 5 μm crosslinked particles in buffer, monitored by UV spectrometer
Assay type: physicochemical
Conditions: 37° C.; for relative rates of release of rhodamine-B: endosomal pH (pH 5.0 buffer), 5 μm particles made with the crosslinker
Description: Each particle was degraded at 37° C. in either pH 5.0 buffer (used to show effects at endosomal pH) or pH 7.4 buffer (used to show effects at normal physiologic pH). The release of entrapped rhodamine-B was monitored by UV spectrometer at a wavelength of 552 nm. The release profile for each crosslinker (the compounds of Formulas (7)-(11)) is shown in FIG. 2 through FIG. 6, respectively.

Row | Substance | relative rates of release of rhodamine-B | release rate / degradation of particles made with the crosslinker (in words) (endosomal pH conditions, 5 μm particles)
1 | Octa-ethylene Glycol Diethyl Silyl Ether [PEG-8-DES] | DMS>>PEG-8-DES≧DES>>PEG-8-DIS≧DIS | ideal release rates
2 | Octa-ethylene Glycol Diisopropyl Silyl Ether [PEG-8-DIS] | DMS>>PEG-8-DES≧DES>>PEG-8-DIS≧DIS | 
